# Results: ChEMBL document CHEMBL1152259, “Synthesis of new sulfonate and phosphonate derivatives for cation-independent mannose 6-phosphate receptor targeting” (Bioorg Med Chem Lett, 2008)
# Target: Cation-independent mannose-6-phosphate receptor/IGF2R (Homo sapiens) (UniProt P11717)
# Assay: Binding affinity to CI-M6PR relative to mannose 6-phosphate
row,Ratio IC50,SMILES
1,0.3,CO[C@H]1O[C@H](/C=C/S(=O)(=O)[O-])[C@@H](O)[C@H](O)[C@@H]1O.[Na+]
2,0.15,CO[C@H]1O[C@H](CCS(=O)(=O)[O-])[C@@H](O)[C@H](O)[C@@H]1O.[Na+]

row,SMILES,Ratio IC50
1,CO[C@H]1O[C@H](/C=C/P(=O)([O-])[O-])[C@@H](O)[C@H](O)[C@@H]1O.[Na+].[Na+],1.05
